Reference: PMC4938799, “LD Motif Recognition by Talin: Structure of the Talin-DLC1 Complex” (Structure(London, England:1993), 2016)

Molecular target: T1, talin R8 domain
T1 construct: talin rod domain R8 (four-helix bundle), isolated domain used 15N-labelled for NMR; Construct limits, host and species are probably in the Supplemental Experimental Procedures; also called [15N]talin R8 domain
Experiment: NMR titration; KD fitted from 1H,15N-HSQC chemical-shift changes; 0.1 mM 15N talin R8, peptide/protein ratios 0.1 to 8; 298 K, 20 mM sodium phosphate pH 6.5, 50 mM NaCl
Settings: both partners purified

Binder: SSEDIDQMFSTLLGEMDLLTQSLGVDT [RIAM peptide (talin binding site)]
- Kd: 3.5 µM
